Source: PubChem BioAssay AID1529 (NMMLSC, 2009)
The entries are a selection whose mix differs from that of the whole data set. Some salts or complexes appear as unconnected parts, following the source record. Active and inactive are the calls of the source.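 Rule for the calls: active = binding response more than 3 SD above or below the average of its plate-row segment, actives on both sides; inconclusive = wells at one plate position flagged as instrument error; inactive = the rest.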

Amino acid sequences for entries named in this document (tags omitted).
UniProt Q99759, whole entry: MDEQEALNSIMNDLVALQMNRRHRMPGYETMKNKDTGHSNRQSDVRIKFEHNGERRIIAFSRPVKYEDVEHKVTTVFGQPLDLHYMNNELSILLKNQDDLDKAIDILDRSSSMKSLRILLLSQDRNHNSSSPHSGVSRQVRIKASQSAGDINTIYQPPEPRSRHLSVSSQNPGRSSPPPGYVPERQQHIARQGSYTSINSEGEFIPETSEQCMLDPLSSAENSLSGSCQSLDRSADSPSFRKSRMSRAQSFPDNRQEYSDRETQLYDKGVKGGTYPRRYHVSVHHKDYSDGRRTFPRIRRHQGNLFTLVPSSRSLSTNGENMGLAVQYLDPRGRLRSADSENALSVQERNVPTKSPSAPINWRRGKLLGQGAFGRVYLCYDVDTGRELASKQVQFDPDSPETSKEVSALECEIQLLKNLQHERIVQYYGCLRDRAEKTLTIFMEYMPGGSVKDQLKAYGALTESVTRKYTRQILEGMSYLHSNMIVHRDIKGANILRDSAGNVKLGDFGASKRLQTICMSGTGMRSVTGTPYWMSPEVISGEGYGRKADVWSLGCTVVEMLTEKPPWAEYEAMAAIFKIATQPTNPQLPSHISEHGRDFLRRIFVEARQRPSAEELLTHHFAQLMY

biological target: Mitogen-activated protein kinase kinase kinase 3 (Homo sapiens) (UniProt Q99759); assay: modulators of MEKK3-MEK5 PB1 binding, primary screen, biochemical, wildtype MEKK3, multiplex bead flow cytometry, Alexa488-MEK5 (AID 1529); details: bead-based flow cytometry, Alexa488-MEK5 binding to MEKK3; at 10 µM; actives lie on both sides; 0 = blocked by unlabeled MEK5, 100 = vehicle;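 note: Alexa488 bead fluorescence after subtracting the streptavidin-only scavenger bead signal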

| Compound | binding response (% of control) |
| --- | --- |
| CCN(CC)CCCOC(=O)C(O)(c1ccccc1)c1ccccc1 | inactive: 104% |
| CCOC(=O)c1ccc(NP(C)(=O)Oc2ccccc2)cc1 (configuration not stated) | inactive: 97% |
| COc1ccccc1OP(C)(=O)Nc1ccc(C)cc1 (configuration not stated) | inactive: 98% |
| COc1ccccc1OP(C)(=O)Nc1cc(Cl)ccc1C (configuration not stated) | inactive: 105% |
| Cc1cc(C)cc(OP(C)(N)=O)c1 (configuration not stated) | inactive: 98% |
| CC(C)(C)c1ccc(OP(C)(=O)Nc2ccc(SC(F)(F)F)cc2)cc1 (configuration not stated) | inactive: 104% |
| Cc1cccc(C)c1OP(C)(N)=O (configuration not stated) | inactive: 104% |
| O=[N+]([O-])c1ccc2c(c1)C=Nc1ccccc1O2 | inactive: 106% |
| CP(=S)(Nn1cnnc1)Oc1ccccc1 (configuration not stated) | inactive: 100% |
| COc1ccccc1OP(C)(=O)Nc1ccccc1 (configuration not stated) | inactive: 101% |
| CP(=O)(Nc1ccccc1Br)Oc1ccccc1 (configuration not stated) | inactive: 99% |
| CCOP(C)(=S)SCC(=O)NC(C)C(=O)O (configuration not stated) | inactive: 103% |
| CCOC(=O)c1ccc(NP(C)(=O)Oc2ccc(OC)cc2)cc1 (configuration not stated) | inactive: 88% |
| CP(=O)(Nc1ccccn1)Oc1ccc(Cl)cc1 (configuration not stated) | inactive: 99% |
| CP(=O)(Nc1ccc(SC(F)(F)F)cc1)Oc1ccc(Cl)cc1 (configuration not stated) | inactive: 86% |
| Cc1cccc(C)c1OP(C)(=O)Nc1ccc(SC(F)(F)F)cc1 (configuration not stated) | inactive: 103% |
| CP(=O)(Oc1ccccc1)OC(c1ccccc1)C(F)(F)F (configuration not stated) | inactive: 104% |
| CCc1ccc(OP(C)(=O)N2CCN(c3ccc([N+](=O)[O-])cc3)CC2)cc1 (configuration not stated) | inactive: 88% |
| CP(=O)(NC(=O)Nc1ccccc1)Oc1ccccc1 (configuration not stated) | inactive: 95% |
| Cc1cc(C)cc(OP(C)(=O)Nc2ccc(SC(F)(F)F)cc2)c1 (configuration not stated) | inactive: 122% |
| Cc1nc2ccc3ccccc3c2s1.O=[N+]([O-])c1cc([N+](=O)[O-])c(O)c([N+](=O)[O-])c1 | inactive: 103% |

| Compound | binding response (% of control) |
| --- | --- |
| O=[N+]([O-])c1cc([N+](=O)[O-])c(-n2nnc3ccccc32)c([N+](=O)[O-])c1 | inactive: 103% |
| CN1CCCCC1COC(=O)C1(O)c2ccccc2CCc2ccccc21 (configuration not stated) | inactive: 98% |
| COc1ccccc1OP(C)(=O)Nc1c(C)cccc1C (configuration not stated) | active: 1% [inhibitor] |
| CP(=O)(Nc1ccc(SC(F)(F)F)cc1)Oc1ccccc1 (configuration not stated) | inactive: 102% |
| CCCOc1ccc(NP(C)(=O)Oc2ccc(Cl)cc2)cc1 (configuration not stated) | inactive: 87% |
| O=[N+]([O-])c1cc([N+](=O)[O-])c(Nc2nnnn2CCO)c([N+](=O)[O-])c1 | inactive: 112% |
| CCOC(=O)C(CC)C1=NC(C)(C)Cc2ccccc21.O=[N+]([O-])c1cc([N+](=O)[O-])c(O)c([N+](=O)[O-])c1 (configuration not stated) | inactive: 127% |
| CC1=NCCc2c1[nH]c1ccccc21.O=[N+]([O-])c1cc([N+](=O)[O-])c(O)c([N+](=O)[O-])c1 | inactive: 100% |
| O=C(O)c1cccc(Nc2c([N+](=O)[O-])cc([N+](=O)[O-])cc2[N+](=O)[O-])c1 | inactive: 90% |
| CP(=O)(Nc1cccc(Br)c1)Oc1ccccc1 (configuration not stated) | inactive: 104% |
| Cc1cc(C)cc(OP(C)(=O)Nc2ccccn2)c1 (configuration not stated) | inactive: 101% |
| Cc1ccc(C)c(NP(C)(=O)Oc2ccccc2)c1 (configuration not stated) | inactive: 105% |
| COc1ccccc1OP(C)(=O)Nc1cccc(Br)c1 (configuration not stated) | inactive: 95% |
| Cc1cc(C)cc(OP(C)(=O)Nc2ccc(C)cc2C)c1 (configuration not stated) | inactive: 108% |
| CCOC(=O)c1ccc(NP(C)(=O)Oc2cc(C)cc(C)c2)cc1 (configuration not stated) | inactive: 104% |
| O=C(OCCN1CCN(CCOCc2ccccc2)CC1)C(O)(c1ccccc1)c1ccccc1 | inactive: 91% |
| O=C(OC1CN2CCC1CC2)c1ccc([N+](=O)[O-])cc1 (configuration not stated) | inactive: 100% |
| COc1ccc2c(c1O)-c1c(O)c(OC)cc3c1[C@H](C2)[N+](C)(C)CC3.O=[N+]([O-])c1cc([N+](=O)[O-])c([O-])c([N+](=O)[O-])c1[O-] | inactive: 98% |
| CC(C)c1ccc(OP(C)(=O)Nc2ccc(SC(F)(F)F)cc2)cc1 (configuration not stated) | inactive: 97% |
| CP(=O)(Nc1ccccc1F)Oc1ccccc1 (configuration not stated) | inactive: 106% |
| CCN(CC)CCCOC(=O)C(O)(c1ccccc1)C1CCCCC1 (configuration not stated) | active: 122% |

| Compound | binding response (% of control) |
| --- | --- |
| CCCCCOc1ccc(NP(C)(=O)Oc2ccc(Cl)cc2Cl)cc1 (configuration not stated) | inactive: 98% |
| O=[N+]([O-])c1cc([N+](=O)[O-])c(OC2CCCCC2O)c([N+](=O)[O-])c1 (configuration not stated) | inactive: 102% |
| CP(=O)(Nc1ccccc1)Oc1ccc(F)cc1 (configuration not stated) | inactive: 100% |
| COc1ccc(OP(C)(=O)Nc2ccc(SC(F)(F)F)cc2)cc1 (configuration not stated) | inactive: 82% |
| CCOC(=O)c1ccc(NP(C)(=O)Oc2ccc(F)cc2)cc1 (configuration not stated) | inactive: 93% |
| Cc1cc(-c2cccc3ccccc23)c(C)cn1.O=[N+]([O-])c1cc([N+](=O)[O-])c(O)c([N+](=O)[O-])c1 | inactive: 99% |
| O=[N+]([O-])c1cc([N+](=O)[O-])c(NCC2CCS(=O)(=O)C2)c([N+](=O)[O-])c1 (configuration not stated) | inactive: 102% |
| O=[N+]([O-])c1ccc(OP2(=O)COCCO2)cc1 (configuration not stated) | inactive: 107% |
| COc1ccc(OP(C)(=O)Nc2cccc(Br)c2)cc1 (configuration not stated) | inactive: 103% |
| COc1ccc(NP(C)(=O)Oc2ccccc2OC)cc1 (configuration not stated) | inactive: 104% |
| CN(C)CCOC(=O)C(O)(c1ccccc1)C1CCCCC1 (configuration not stated) | inactive: 92% |
| CP(=O)(Nc1ccc2c(c1)OCCO2)Oc1ccccc1 (configuration not stated) | inactive: 109% |
| Cc1ccccc1NP(C)(=O)Nc1ccccc1C | inactive: 102% |
| CP(=O)(Nc1ccc(SC(F)(F)F)cc1)Oc1ccc(F)cc1 (configuration not stated) | inactive: 91% |
| CCOP(C)(=S)SCC(=O)NC(C)(CC)C(=O)O (configuration not stated) | inactive: 102% |
| CP(=O)(Nc1ccc(Cl)cc1)Oc1ccc(F)cc1 (configuration not stated) | active: 124% |
| CC(C)(C)c1ccc(OP(C)(=O)O)cc1 | inactive: 102% |
| COc1ccccc1OP(C)(=O)Nc1ccccc1Br (configuration not stated) | inactive: 95% |
| CN(C)C(=O)c1c([N+](=O)[O-])cc([N+](=O)[O-])cc1[N+](=O)[O-] | inactive: 100% |
| CCN(CC)CC(O)COC(=O)C(O)(c1ccccc1)C1CCCCC1 (configuration not stated) | inactive: 100% |
| COc1ccc(OP(C)(=O)Nc2ccc(Br)cc2)cc1 (configuration not stated) | inactive: 96% |

| Compound | binding response (% of control) |
| --- | --- |
| CP(=O)(Oc1ccccc1)N1CCOC1=O (configuration not stated) | inactive: 95% |
| CCc1ccc(OP(C)(=O)Nc2cccnc2)cc1 (configuration not stated) | inactive: 88% |
| COc1ccccc1OP(C)(=O)Nc1c(C)n(C)n(-c2ccccc2)c1=O (configuration not stated) | inactive: 109% |
| O=C(OCCCN1CCCC1)C(O)(c1ccccc1)C1CCCCC1 (configuration not stated) | inactive: 94% |
| CP(=O)(OC12CC3CC(CC(C3)C1)C2)OC12CC3CC(CC(C3)C1)C2 | inactive: 101% |
| CCOC(=O)c1ccc(NP(C)(=O)Oc2ccc(Cl)cc2)cc1 (configuration not stated) | inactive: 100% |
| Cc1nc2ccc3ccccc3c2o1.O=[N+]([O-])c1cc([N+](=O)[O-])c(O)c([N+](=O)[O-])c1 | inactive: 95% |
| CP(=O)(OCCOc1ccccc1)OCCOc1ccccc1 | inactive: 110% |
| CP(=O)(Nc1ccc(Cl)cc1Cl)Oc1ccccc1 (configuration not stated) | inactive: 95% |
| Cc1cc(C)cc(OP(C)(=O)Nc2cccc(C(F)(F)F)c2)c1 (configuration not stated) | inactive: 101% |
| COc1ccc(OP(C)(=O)Nc2ccccc2Br)cc1 (configuration not stated) | inactive: 101% |
| COc1ccccc1OP(C)(=O)Nc1ccc(C)c(C)c1 (configuration not stated) | inactive: 97% |
| Cc1c(NP(C)(=O)Oc2ccc(C(C)C)cc2)c(=O)n(-c2ccccc2)n1C (configuration not stated) | inactive: 109% |
| CCc1ccc(OP(C)(=O)O)cc1 | inactive: 106% |
| CP(=O)(Nc1ccccn1)Oc1ccccc1 (configuration not stated) | inactive: 102% |
| COc1ccccc1OP(C)(=O)Nc1ccc(C)cc1C (configuration not stated) | inactive: 105% |
| COc1ccccc1OP(C)(=O)Nc1ccc(Br)cc1 (configuration not stated) | inactive: 95% |
| CN(C)CCOC(=O)C(O)(c1ccccc1)C1CCCC1 (configuration not stated) | inactive: 105% |
| COc1ccc(OP(C)(=O)Nc2ccccn2)cc1 (configuration not stated) | inactive: 103% |
